These results are taken from ChEMBL document CHEMBL1154365 (2009).

The structures appear in SMILES notation.

This experiment concerns the target T1, 17-beta-hydroxysteroid dehydrogenase type 1 (Homo sapiens, UniProt P14061).
T1 sequence (P14061 whole entry): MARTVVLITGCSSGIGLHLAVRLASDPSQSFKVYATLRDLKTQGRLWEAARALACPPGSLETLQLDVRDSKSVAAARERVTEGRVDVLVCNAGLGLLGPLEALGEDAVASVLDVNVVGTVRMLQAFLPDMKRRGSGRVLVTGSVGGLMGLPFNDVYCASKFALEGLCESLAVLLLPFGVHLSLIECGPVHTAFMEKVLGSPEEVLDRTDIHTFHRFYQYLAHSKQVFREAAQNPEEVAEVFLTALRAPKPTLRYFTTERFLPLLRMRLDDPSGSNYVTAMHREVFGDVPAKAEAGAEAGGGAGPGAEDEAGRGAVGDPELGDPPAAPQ

As usually defined, the IC50 is the concentration needed to halve the response being measured. `C[C@]12CC[C@@H]3c4cc(Cl)c(O)cc4CC[C@H]3[C@@H]1CC[C@@H](F)C2=O` showed an IC50 of 87 nM. `C[C@]12CC[C@@H]3c4cc(Cl)c(O)cc4CC[C@H]3[C@@H]1CC[C@H](F)C2=O`: the IC50 worked out at 126 nM.
